Laboratory results: ChEMBL document CHEMBL4828766, “Functional Mixture-Based Positional Scan Identifies a Library of Antagonist Tetrapeptide Sequences (LAtTeS) with Nanomolar Potency for the Melanocortin-4 Receptor and Equipotent with the Endogenous AGRP(86-132) Antagonist” (J Med Chem, 2021)

By UniProt entry, the sequences of proteins in these tests, tags left out. Where a name states a change or a piece, a line headed by the entry shows the natural chain unless it says otherwise.
UniProt P33033: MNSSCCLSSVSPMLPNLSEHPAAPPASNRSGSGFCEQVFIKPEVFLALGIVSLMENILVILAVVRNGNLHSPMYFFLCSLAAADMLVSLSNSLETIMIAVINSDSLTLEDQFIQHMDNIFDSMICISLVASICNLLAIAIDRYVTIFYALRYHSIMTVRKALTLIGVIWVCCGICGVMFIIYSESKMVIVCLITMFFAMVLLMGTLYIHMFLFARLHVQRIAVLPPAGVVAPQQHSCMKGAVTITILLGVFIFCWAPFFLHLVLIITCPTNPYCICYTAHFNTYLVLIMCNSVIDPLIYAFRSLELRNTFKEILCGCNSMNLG
UniProt P56450, whole entry: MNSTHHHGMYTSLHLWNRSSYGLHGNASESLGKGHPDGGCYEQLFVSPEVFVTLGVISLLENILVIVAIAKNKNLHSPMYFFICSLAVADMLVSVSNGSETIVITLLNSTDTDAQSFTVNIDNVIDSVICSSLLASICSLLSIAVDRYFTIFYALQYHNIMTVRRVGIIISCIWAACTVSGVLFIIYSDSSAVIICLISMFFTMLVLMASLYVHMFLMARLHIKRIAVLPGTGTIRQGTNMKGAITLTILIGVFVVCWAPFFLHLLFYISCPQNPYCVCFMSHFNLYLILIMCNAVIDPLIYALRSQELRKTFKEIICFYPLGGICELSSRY

How the values were obtained:
[1] = molecular target: Melanocortin receptor 3 (Mus musculus, UniProt P33033); assay: Agonist activity at mouse MC3R expressed in HEK293 cells assessed as induction of cAMP level incubated for 2 hr by alphaScreen assay; format: functional, cell-based
[2] = molecular target: Melanocortin receptor 4 (Mus musculus, UniProt P56450); assay: Agonist activity at mouse MC4R expressed in HEK293 cells assessed as induction of cAMP level incubated for 2 hr by alphaScreen assay; format: functional, cell-based

| SMILES | EC50 [1] | EC50 [2] |
| --- | --- | --- |
| CC(=O)N[C@H](Cc1ccc(I)cc1)C(=O)N[C@@H](CCCNC(=N)N)C(=O)N[C@H](Cc1ccc2ccccc2c1)C(=O)N[C@H](CCCCN)C(N)=O | > 100 µM | > 100 µM |
| CC(=O)N[C@H](Cc1ccc(I)cc1)C(=O)N[C@@H](CCCNC(=N)N)C(=O)N[C@@H](Cc1ccc2ccccc2c1)C(=O)N[C@@H](CCCNC(=N)N)C(N)=O | > 100 µM | – |
| CC(=O)N[C@H](Cc1ccc(I)cc1)C(=O)N[C@@H](CCCNC(=N)N)C(=O)N[C@@H](Cc1ccc2ccccc2c1)C(=O)N[C@H](CCCCN)C(N)=O | > 100 µM | > 100 µM |
| CC(=O)N[C@H](Cc1ccc(I)cc1)C(=O)N[C@@H](CCCNC(=N)N)C(=O)N[C@H](Cc1ccc2ccccc2c1)C(=O)N[C@@H](CCCNC(=N)N)C(N)=O | > 100 µM | > 100 µM |
